For 1 molecule, inhibition results are on record in PubChem BioAssay AID651997 (Sanford-Burnham Center for Chemical Genomics, 2013).

Protein sequences, listed by entry. Tags and fused reporters are not part of them.
UniProt P32249, whole entry: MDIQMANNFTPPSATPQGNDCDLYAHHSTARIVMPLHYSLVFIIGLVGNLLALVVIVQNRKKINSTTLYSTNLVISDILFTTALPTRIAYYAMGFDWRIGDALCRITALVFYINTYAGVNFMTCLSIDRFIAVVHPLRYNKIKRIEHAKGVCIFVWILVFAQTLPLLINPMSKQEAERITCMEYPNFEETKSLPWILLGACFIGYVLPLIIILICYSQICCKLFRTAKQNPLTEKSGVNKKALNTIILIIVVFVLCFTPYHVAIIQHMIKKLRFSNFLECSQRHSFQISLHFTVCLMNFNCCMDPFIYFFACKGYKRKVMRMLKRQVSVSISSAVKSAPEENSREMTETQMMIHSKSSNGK

Only a part is listed here, and it is no random draw. Active and inactive are the calls of the source.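 Rule for the calls: active = inhibition of at least 50%; inactive = the rest.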

This experiment deals with G-protein coupled receptor 183 (Homo sapiens) (UniProt P32249). The experiment in a line: EBI2 antagonist hit retest, beta-arrestin, confirmation, cell-based, single concentration, luminescence, 7a,25-OHC stimulation (AID 651997). Particulars: 7a,25-OHC antagonism, at 5 µM, stronger effect = higher value.
Turning to `CN(Cc1cccnc1)C(=O)COc1ccc(Cl)c(Cl)c1.O=[N+]([O-])c1cc([N+](=O)[O-])c(O)c([N+](=O)[O-])c1`, the inhibition was inactive: 32.1%.

A word on the inhibition: it is the drop in the measured response relative to a control, in per cent.
